# Measured values as given in patent publication US8980954B2, “Substituted cis- and trans-stilbenes as therapeutic agents” (STC.UNM, priority 2006, dated 2015).
# Test system: NF-κB
# Experiment: Inhibition of the TNFα-induced activation of NF-κB, 293T/NF-κB-luc luciferase reporter cell assay
# Assay type: cell-based
# Details: Homo sapiens, HEK-293T; 293T/NF-κB-luc cells, TNFα 20 ng/ml, 7 hours, triplicate; read-out: IC50 for inhibition of the TNFα-induced activation of NFκB
# Description: The cells were maintained in Dulbecco's Modified Eagle's Medium (DMEM—high glucose containing 4 mM glutamine) supplemented with 10% fetal bovine serum (FBS), 1 mM sodium pyruvate, 100 units/ml penicillin, 100 μg/ml streptomycin and 100 μg/ml hygromycin (Gibco/Invitrogen, Carlsbad, Calif.) to maintain cell selection. […] The following day cells were fed fresh media 1 hour prior to treatment. […] Plate wells were gently washed with phosphate buffered saline, pH 7.4, and lysed with 1x passive lysis buffer (Promega, Madison, Wis.). The subsequent lysates were analyzed with the Luciferase Assay System (Promega) utilizing a TD-20/20 luminometer (Turner Designs, Sunnyvale, Calif.). The firefly luciferase relative light units were normalized to protein (mg/ml) with BCA™ Protein Assay Kit (Pierce, Rockford, Ill.) and standardized to percent of control (TNFα control).
row,IC50 [nM],SMILES
1,1100 ± 600,"COc1ccc(/C=C/c2cccc(F)c2)cc1 [6n, (E)-3-Fluoro-4′-methoxystilbene]"
2,1300 ± 300,"C(=C\c1ccc2ccccc2c1)/c1ccccc1 [8e, (E)-2-Styrylnaphthalene]"
